# Results published in PMC9199891 (Clinical and Translational Science, 2022).
# Experiment: Single-dose pharmacokinetics of omeprazole
# Format: in vivo, healthy Chinese volunteers
# Conditions: 20 mg single oral dose, mean ± SD
smiles,measurement,setting,value
COc1ccc2[nH]c([S+]([O-])Cc3ncc(C)c(OC)c3C)nc2c1 (stereo not drawn) [omeprazole],t1/2,CYP2C19 *1/*1 (n = 263),60.6 ± 45.6 min
same,t1/2,CYP2C19 *2/*17 (n = 2),54 ± 5.4 min
same,t1/2,CYP2C19 *3/*17 (n = 3),51.6 ± 7.8 min
